Binding of CDR-mutated scFvs to a peptide of the spike HR2 region

All variants were tested on one target, the spike HR2 peptide PDVDLGDISGINAS (SARS-CoV-2).

Each scFv is VH, three GGGGS repeats, VL, as in the parent Ab-95, and differs from it in the CDRs of the light chain only.
VH: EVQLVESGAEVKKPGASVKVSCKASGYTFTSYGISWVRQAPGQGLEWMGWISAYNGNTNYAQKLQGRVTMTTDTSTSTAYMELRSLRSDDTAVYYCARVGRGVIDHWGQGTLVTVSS
VL: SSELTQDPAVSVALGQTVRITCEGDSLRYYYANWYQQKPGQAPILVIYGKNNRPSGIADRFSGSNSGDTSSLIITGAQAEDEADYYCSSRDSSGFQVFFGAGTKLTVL

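The library (AAYL52) carries one to three amino acid substitutions per variant, with no insertions or deletions. Affinity was read by AlphaSeq, a pooled yeast mating assay with surface-displayed partners. Binding brings cells together so that they mate, and sequencing counts the barcode pairs among the diploids. Each replicate has its own calibration line, from reference interactions of the BCL2 family. There are three technical replicates.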

Each variant is given by its three light chain CDRs, as the data file delimits them; those of the parent are EGDSLRYYYAN, GKNNRPS, SSRDSSGFQVF. Affinities are written as log10 Kd with Kd in nM; a lower number is a better binder. Averages over replicates are reported, and they cover detected replicates only. A pair that was not seen in that replicate is written "nd"; this usually means weak binding, but a binder can also be missed.

{"CDR-L1": "EMDSLRYYYAN", "CDR-L2": "GKVNRPS", "CDR-L3": "SSRDSSWFQVF", "log10 Kd, replicates": "3.50 / nd / nd", "mean log10 Kd (nM)": "3.50", "empty controls": "1 of 9 (4.09)"}
{"CDR-L1": "EGDSLRYYYAN", "CDR-L2": "GYNNRPS", "CDR-L3": "SSRDSTQFQVF", "log10 Kd, replicates": "3.34 / 2.74 / 3.02", "mean log10 Kd (nM)": "3.03", "empty controls": "2 of 9 (3.52)"}
{"CDR-L1": "EGDSLRYYYAN", "CDR-L2": "GKNNRPP", "CDR-L3": "SHRDSSGFQKF", "log10 Kd, replicates": "nd / nd / nd", "mean log10 Kd (nM)": "nd", "empty controls": "3 of 9 (4.20)"}
{"CDR-L1": "EGDSLRYYYAN", "CDR-L2": "GKNNRPS", "CDR-L3": "SSKDSSGFQVF", "log10 Kd, replicates": "2.48 / 2.86 / 2.08", "mean log10 Kd (nM)": "2.48", "empty controls": "4 of 9 (4.16)"}
{"CDR-L1": "EGDSLRYYYAN", "CDR-L2": "GKPNRPS", "CDR-L3": "SSFDSYGFQVF", "log10 Kd, replicates": "3.94 / 3.79 / nd", "mean log10 Kd (nM)": "3.87", "empty controls": "3 of 9 (4.13)"}
{"CDR-L1": "EGDSLRYYYAN", "CDR-L2": "GKNNRNS", "CDR-L3": "SSRDSSGHGVF", "log10 Kd, replicates": "nd / nd / nd", "mean log10 Kd (nM)": "nd", "empty controls": "1 of 9 (3.38)"}
{"CDR-L1": "EGDSIRYYYSN", "CDR-L2": "GKNNRIS", "CDR-L3": "SSRDSSGFQVF", "log10 Kd, replicates": "4.34 / nd / nd", "mean log10 Kd (nM)": "4.34", "empty controls": "1 of 9 (3.33)"}
{"CDR-L1": "EGDSSRYYYAN", "CDR-L2": "GYNNRPQ", "CDR-L3": "SSRDSSGFQVF", "log10 Kd, replicates": "3.57 / 4.02 / 3.54", "mean log10 Kd (nM)": "3.71", "empty controls": "2 of 9 (3.70)"}
{"CDR-L1": "EGDSLRYYYAN", "CDR-L2": "GKNNRPS", "CDR-L3": "ASRDSSGQQKF", "log10 Kd, replicates": "2.64 / 2.85 / 2.65", "mean log10 Kd (nM)": "2.71", "empty controls": "2 of 9 (3.77)"}
{"CDR-L1": "EGDSLRYYYAN", "CDR-L2": "WKNNRPS", "CDR-L3": "SSRDSAGFQSF", "log10 Kd, replicates": "4.69 / nd / nd", "mean log10 Kd (nM)": "4.69", "empty controls": "0 of 9"}
{"CDR-L1": "EGDSLRYYYAN", "CDR-L2": "GKNNRPS", "CDR-L3": "QSRDSSKFQVI", "log10 Kd, replicates": "nd / nd / nd", "mean log10 Kd (nM)": "nd", "empty controls": "0 of 9"}
{"CDR-L1": "EGLSTRYYYAN", "CDR-L2": "GKNNRPS", "CDR-L3": "SSRDSSGFCVF", "log10 Kd, replicates": "4.33 / 4.06 / 3.98", "mean log10 Kd (nM)": "4.12", "empty controls": "4 of 9 (3.79)"}
{"CDR-L1": "EGDCLRYYYAN", "CDR-L2": "GKNFRPS", "CDR-L3": "SSRDSLGFQVF", "log10 Kd, replicates": "2.82 / 2.63 / 3.00", "mean log10 Kd (nM)": "2.82", "empty controls": "4 of 9 (3.66)"}
{"CDR-L1": "VGDSLRYYYAA", "CDR-L2": "GKNNRPS", "CDR-L3": "SSRDSSSFQVF", "log10 Kd, replicates": "3.33 / 3.87 / 3.79", "mean log10 Kd (nM)": "3.66", "empty controls": "4 of 9 (3.72)"}
{"CDR-L1": "EGDCLRYEYAN", "CDR-L2": "GKLNRPS", "CDR-L3": "SSRDSSGFQVF", "log10 Kd, replicates": "3.44 / 2.94 / nd", "mean log10 Kd (nM)": "3.19", "empty controls": "2 of 9 (4.18)"}
{"CDR-L1": "EDDSLRYYYAN", "CDR-L2": "GTNNRPS", "CDR-L3": "SSRDSSQFQVF", "log10 Kd, replicates": "nd / 2.98 / 4.30", "mean log10 Kd (nM)": "3.64", "empty controls": "3 of 9 (3.50)"}
{"CDR-L1": "EGDDLRYYYAH", "CDR-L2": "GKNNYPS", "CDR-L3": "SSRDSSGFQVF", "log10 Kd, replicates": "nd / nd / nd", "mean log10 Kd (nM)": "nd", "empty controls": "1 of 9 (3.67)"}
{"CDR-L1": "EGVSLRYYYAN", "CDR-L2": "GKNNRVS", "CDR-L3": "SSHDSSGFQVF", "log10 Kd, replicates": "2.01 / 3.14 / 2.70", "mean log10 Kd (nM)": "2.61", "empty controls": "1 of 9 (4.54)"}
{"CDR-L1": "EGDSLRYYYAN", "CDR-L2": "GKNKRPS", "CDR-L3": "SSRDHKGFQVF", "log10 Kd, replicates": "4.67 / nd / nd", "mean log10 Kd (nM)": "4.67", "empty controls": "1 of 9 (3.91)"}
{"CDR-L1": "EGDSLRYYYAN", "CDR-L2": "TKNDSPS", "CDR-L3": "SSRDSSGFQVF", "log10 Kd, replicates": "nd / nd / nd", "mean log10 Kd (nM)": "nd", "empty controls": "0 of 9"}
{"CDR-L1": "EGDSLRNFYAN", "CDR-L2": "GKNNRPS", "CDR-L3": "SSRDSSGFQVL", "log10 Kd, replicates": "3.10 / 2.62 / 2.59", "mean log10 Kd (nM)": "2.77", "empty controls": "1 of 9 (3.48)"}
{"CDR-L1": "EGFSCRYYYAN", "CDR-L2": "GKNNRPS", "CDR-L3": "MSRDSSGFQVF", "log10 Kd, replicates": "4.71 / 4.87 / 4.48", "mean log10 Kd (nM)": "4.69", "empty controls": "3 of 9 (4.19)"}
{"CDR-L1": "LGDSLRYYYAN", "CDR-L2": "GKNNRMS", "CDR-L3": "SSDDSSGFQVF", "log10 Kd, replicates": "3.88 / nd / 2.74", "mean log10 Kd (nM)": "3.31", "empty controls": "3 of 9 (3.87)"}
{"CDR-L1": "EGDSLRYYPAN", "CDR-L2": "GKNNRPS", "CDR-L3": "WSRDSSGFQVK", "log10 Kd, replicates": "1.90 / 1.87 / 1.72", "mean log10 Kd (nM)": "1.83", "empty controls": "1 of 9 (3.71)"}
{"CDR-L1": "NGDSLWYYYAN", "CDR-L2": "GKNNAPS", "CDR-L3": "SSRDSSGFQVF", "log10 Kd, replicates": "4.77 / 3.30 / 3.25", "mean log10 Kd (nM)": "3.77", "empty controls": "3 of 9 (3.61)"}
{"CDR-L1": "EGDRLRYYYAN", "CDR-L2": "GKNNRWS", "CDR-L3": "SSRDSGGFQVF", "log10 Kd, replicates": "3.24 / 5.21 / nd", "mean log10 Kd (nM)": "4.22", "empty controls": "1 of 9 (2.48)"}

Extract of 3 entries:

CDR-L1	CDR-L2	CDR-L3	log10 Kd, replicates	mean log10 Kd (nM)	empty controls
LGDSLRYYYAN	GKNNRMS	SSDDSSGFQVF	3.88 / nd / 2.74	3.31	3 of 9 (3.87)
EGDSLRYYYAN	GKNNRNS	SSRDSSGHGVF	nd / nd / nd	nd	1 of 9 (3.38)
EGDCLRYEYAN	GKLNRPS	SSRDSSGFQVF	3.44 / 2.94 / nd	3.19	2 of 9 (4.18)

Empty control strains, which show no peptide, gave a signal in 28% of pairings with library AAYL52; the median was 3.91 and 95% of these signals were weaker than 2.90. No background was subtracted. For each scFv, signals with the empty controls are counted beside the result, with their mean in brackets. Parent in this assay: reference entry 2.31, copy in this library 2.25.

Source: Engelhart et al. 2022 (doi:10.1038/s41597-022-01779-4), MIT Lincoln Laboratory and A-Alpha Bio; data file from the FLAb repository.